The values below come from patent US12590088B2 (dated 2026).

Chains of the proteins cited; added tags and fusions are not shown. Lines headed by an entry give the natural chain unless they say otherwise; changes in a name come on top.
UniProt O60674: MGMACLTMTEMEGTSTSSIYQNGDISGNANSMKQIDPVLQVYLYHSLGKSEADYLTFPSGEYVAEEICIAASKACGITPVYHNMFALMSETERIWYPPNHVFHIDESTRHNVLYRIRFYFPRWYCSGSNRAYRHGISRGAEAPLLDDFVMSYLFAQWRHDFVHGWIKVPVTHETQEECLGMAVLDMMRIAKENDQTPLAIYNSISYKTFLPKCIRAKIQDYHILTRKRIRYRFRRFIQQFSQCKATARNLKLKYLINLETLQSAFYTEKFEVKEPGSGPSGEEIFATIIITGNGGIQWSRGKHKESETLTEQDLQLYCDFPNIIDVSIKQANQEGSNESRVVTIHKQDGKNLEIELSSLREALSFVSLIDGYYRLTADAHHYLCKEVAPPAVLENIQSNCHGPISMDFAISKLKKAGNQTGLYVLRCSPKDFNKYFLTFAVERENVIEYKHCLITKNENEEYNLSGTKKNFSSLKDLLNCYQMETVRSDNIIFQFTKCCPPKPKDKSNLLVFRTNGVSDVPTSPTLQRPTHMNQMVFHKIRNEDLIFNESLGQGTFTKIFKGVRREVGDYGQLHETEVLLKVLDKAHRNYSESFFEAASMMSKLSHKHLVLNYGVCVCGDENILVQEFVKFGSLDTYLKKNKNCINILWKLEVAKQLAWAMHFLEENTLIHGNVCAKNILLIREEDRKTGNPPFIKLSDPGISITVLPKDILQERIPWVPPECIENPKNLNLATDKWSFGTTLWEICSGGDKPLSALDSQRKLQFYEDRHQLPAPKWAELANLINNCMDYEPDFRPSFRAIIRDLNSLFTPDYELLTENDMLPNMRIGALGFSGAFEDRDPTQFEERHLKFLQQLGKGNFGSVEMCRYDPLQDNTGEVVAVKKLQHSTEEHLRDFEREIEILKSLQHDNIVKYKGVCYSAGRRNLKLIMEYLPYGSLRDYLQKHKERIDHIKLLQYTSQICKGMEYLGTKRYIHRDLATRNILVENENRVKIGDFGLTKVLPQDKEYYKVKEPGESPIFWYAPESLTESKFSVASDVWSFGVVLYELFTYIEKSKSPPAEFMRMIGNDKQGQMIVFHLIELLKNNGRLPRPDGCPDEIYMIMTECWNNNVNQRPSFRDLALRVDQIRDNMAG
UniProt P23458: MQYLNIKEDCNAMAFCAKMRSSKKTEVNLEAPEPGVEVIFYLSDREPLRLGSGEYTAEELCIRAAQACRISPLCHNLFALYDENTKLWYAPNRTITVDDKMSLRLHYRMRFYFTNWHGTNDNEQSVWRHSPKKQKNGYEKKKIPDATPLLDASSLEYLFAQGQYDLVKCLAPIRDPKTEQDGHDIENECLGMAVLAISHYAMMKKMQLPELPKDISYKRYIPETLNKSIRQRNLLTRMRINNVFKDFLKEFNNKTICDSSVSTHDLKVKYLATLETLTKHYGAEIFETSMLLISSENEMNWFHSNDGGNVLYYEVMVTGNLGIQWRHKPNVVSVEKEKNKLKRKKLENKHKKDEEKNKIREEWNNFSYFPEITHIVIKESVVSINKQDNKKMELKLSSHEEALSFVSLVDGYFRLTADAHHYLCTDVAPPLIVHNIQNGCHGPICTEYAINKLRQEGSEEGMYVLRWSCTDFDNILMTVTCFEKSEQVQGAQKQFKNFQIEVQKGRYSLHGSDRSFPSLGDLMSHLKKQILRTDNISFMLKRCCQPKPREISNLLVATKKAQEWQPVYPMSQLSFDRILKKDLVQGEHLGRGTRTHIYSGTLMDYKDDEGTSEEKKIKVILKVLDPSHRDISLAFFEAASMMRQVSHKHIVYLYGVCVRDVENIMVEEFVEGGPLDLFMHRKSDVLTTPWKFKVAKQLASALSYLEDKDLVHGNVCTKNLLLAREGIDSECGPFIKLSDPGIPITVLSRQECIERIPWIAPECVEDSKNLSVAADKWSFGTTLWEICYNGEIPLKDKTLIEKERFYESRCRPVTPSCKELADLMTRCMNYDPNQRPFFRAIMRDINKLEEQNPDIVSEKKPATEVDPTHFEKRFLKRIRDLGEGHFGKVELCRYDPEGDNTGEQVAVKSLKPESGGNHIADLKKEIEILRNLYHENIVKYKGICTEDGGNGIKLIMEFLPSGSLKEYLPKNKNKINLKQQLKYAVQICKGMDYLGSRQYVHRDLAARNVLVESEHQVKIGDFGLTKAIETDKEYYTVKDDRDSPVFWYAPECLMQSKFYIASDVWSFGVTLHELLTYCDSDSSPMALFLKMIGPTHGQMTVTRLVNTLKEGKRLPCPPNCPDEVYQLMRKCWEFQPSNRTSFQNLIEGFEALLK

A word on the IC50: it is the concentration at which inhibition is half-maximal.

The target of one assay is JAK2 (Homo sapiens, UniProt O60674). Kind of assay: JAK2 IC50 measurement.
Settings: not given
In the case of `CNC(=O)c1cnc2[nH]ccc2c1N[C@H]1CCN(Cc2ccc(C#N)cc2)[C@@H](C)C1` (relative stereo) [Compound 20j, 4-((cis-1-(4-Cyanobenzyl)-2-methylpiperidin-4-yl)amino)-N-methyl-1H-pyrrolo[2,3-b]pyridine-5-carboxamide], the IC50 worked out at 4.5 nM.

Turning to `CNC(=O)c1cnc2[nH]ccc2c1N[C@@H]1CCN(Cc2cccc(OC)c2)[C@@H](C)C1` (relative stereo) [Compound 20d, 4-((trans-1-(3-Methoxybenzyl)-2-methylpiperidin-4-yl)amino)-N-methyl-1H-pyrrolo[2,3-b]pyridine-5-carboxamide], half-maximal inhibition (IC50) was put at 88.5 nM.

The target in the next assay is JAK1 (Homo sapiens, UniProt P23458). Kind of assay: JAK1 IC50 measurement.
Settings: not given
In turn, `CNC(=O)c1cnc2[nH]ccc2c1N[C@H]1CCN(Cc2cccc(Cl)c2)C1` [Compound 15h, (S)-4-((1-(3-Chlorobenzyl)pyrrolidin-3-yl)amino)-N-methyl-1H-pyrrolo[2,3-b]pyridine-5-carboxamide] yielded an IC50 of 0.42 µM. On the same count and under the same terms, the figure for `CNC(=O)c1cnc2[nH]ccc2c1N[C@H]1CCN(Cc2ccc(Cl)cc2)C1` [Compound 15i, (S)-4-((1-(4-Chlorobenzyl)pyrrolidin-3-yl)amino)-N-methyl-1H-pyrrolo[2,3-b]pyridine-5-carboxamide] is 0.703 µM; for `CNC(=O)c1cnc2[nH]ccc2c1N[C@@H]1CCN(Cc2ccc(Cl)cc2)C1` [Compound 15g, (R)-4-((1-(4-Chlorobenzyl)pyrrolidin-3-yl)amino)-N-methyl-1H-pyrrolo[2,3-b]pyridine-5-carboxamide] it is 0.0489 µM.

Regarding `CNC(=O)c1cnc2[nH]ccc2c1N[C@@H]1CCN(Cc2cccc(Cl)c2)C1` [Compound 15f, (R)-4-((1-(3-chlorobenzyl)pyrrolidin-3-yl)amino)-N-methyl-1H-pyrrolo[2,3-b]pyridine-5-carboxamide], the IC50 turned out to be 0.0798 µM.

Still in this assay, the particulars now being: read-out: IC50(μM) JAK1.
Regarding `CNC(=O)c1cnc2[nH]ccc2c1NC1CCN(Cc2ccc(OC)cc2)C1` (stereo not shown) [Compound 15e, 4-((1-(4-Methoxybenzyl)pyrrolidin-3-yl)amino)-N-methyl-1H-pyrrolo[2,3-b]pyridine-5-carboxamide], the IC50 turned out to be 0.149 µM. On the same count and under the same terms, in the case of `CNC(=O)c1cnc2[nH]ccc2c1NC1CC2CCC(C1)N2Cc1cccc(Cl)c1` (stereo not shown) [Compound 17b, 4-((8-(3-Chlorobenzyl)-8-azabicyclo[3.2.1]octan-3-yl)amino)-N-methyl-1H-pyrrolo[2,3-b]pyridine-5-carboxamide] it was 0.0408 µM. `CNC(=O)c1cnc2[nH]ccc2c1NC1CCCN(Cc2ccc(OC)cc2)CC1` (stereo not shown) [Compound 19d, 4-((1-(4-Methoxybenzyl)azepan-4-yl)amino)-N-methyl-1H-pyrrolo[2,3-b]pyridine-5-carboxamide]: the IC50 stood at 0.0305 µM. The same measure, in the same setting: the figure for `CNC(=O)c1cnc2[nH]ccc2c1NC1CCCN(Cc2ccc(Cl)cc2)CC1` (stereo not shown) [Compound 19c, 4-((1-(4-Chlorobenzyl)azepan-4-yl)amino)-N-methyl-1H-pyrrolo[2,3-b]pyridine-5-carboxamide] is 0.012 µM; for `CNC(=O)c1cnc2[nH]ccc2c1NCC1CCN(Cc2cccc(Cl)c2)CC1` [Compound 14b, 4-(((1-(3-Chlorobenzyl)piperidin-4-yl)methyl)amino)-N-methyl-1H-pyrrolo[2,3-b]pyridine-5-carboxamide] it is 0.243 µM. On the same count and under the same terms, in the case of `CNC(=O)c1cnc2[nH]ccc2c1NC1CCCN(Cc2ccccc2)CC1` (stereo not shown) [Compound 19a, 4-((1-Benzylazepan-4-yl)amino)-N-methyl-1H-pyrrolo[2,3-b]pyridine-5-carboxamide] it was 0.0377 µM. Still for that read-out and setting: in the case of `CNC(=O)c1cnc2[nH]ccc2c1NC1CC2CCC(C1)N2Cc1ccc(OC)cc1` (stereo not shown) [Compound 17e, 4-((8-(4-Methoxybenzyl)-8-azabicyclo[3.2.1]octan-3-yl)amino)-N-methyl-1H-pyrrolo[2,3-b]pyridine-5-carboxamide] it was 0.0338 µM; in that of `CNC(=O)c1cnc2[nH]ccc2c1NC1CCN(Cc2cccc(OC)c2)C1` (stereo not shown) [Compound 15d, 4-((1-(3-Methoxybenzyl)pyrrolidin-3-yl)amino)-N-methyl-1H-pyrrolo[2,3-b]pyridine-5-carboxamide], 0.827 µM; in that of `CNC(=O)c1cnc2[nH]ccc2c1NC1CCN(Cc2ccc(Cl)cc2)C1` (stereo not shown) [Compound 15c, 4-((1-(4-Chlorobenzyl)pyrrolidin-3-yl)amino)-N-methyl-1H-pyrrolo[2,3-b]pyridine-5-carboxamide], 0.0801 µM. On to `CNC(=O)c1cnc2[nH]ccc2c1NC1CCN(Cc2cccc(Cl)c2)C1` (stereo not shown) [Compound 15b, 4-((1-(3-Chlorobenzyl)pyrrolidin-3-yl)amino)-N-methyl-1H-pyrrolo[2,3-b]pyridine-5-carboxamide], for which the 50% inhibitory concentration (IC50) amounted to 0.06 µM. Take `CNC(=O)c1cnc2[nH]ccc2c1NC1CCCN(Cc2ccc(C#N)cc2)CC1` (stereo not shown) [Compound 19e, 4-((1-(4-Cyanobenzyl)azepan-4-yl)amino)-N-methyl-1H-pyrrolo[2,3-b]pyridine-5-carboxamide]: the IC50 was 0.0327 µM. Turning to `CNC(=O)c1cnc2[nH]ccc2c1NCC1CCN(Cc2cccc(OC)c2)CC1` [Compound 14d, 4-(((1-(3-Methoxybenzyl)piperidin-4-yl)methyl)amino)-N-methyl-1H-pyrrolo[2,3-b]pyridine-5-carboxamide], the IC50 was found to be 0.132 µM. In the case of `CNC(=O)c1cnc2[nH]ccc2c1NCC1CCN(Cc2ccc(Cl)cc2)CC1` [Compound 14c, 4-(((1-(4-Chlorobenzyl)piperidin-4-yl)methyl)amino)-N-methyl-1H-pyrrolo[2,3-b]pyridine-5-carboxamide], the IC50 came to 0.0722 µM. Still for that read-out and setting: in the case of `CNC(=O)c1cnc2[nH]ccc2c1NCC1CCN(Cc2ccc(OC)cc2)CC1` [Compound 14e, 4-(((1-(4-Methoxybenzyl)piperidin-4-yl)methyl)amino)-N-methyl-1H-pyrrolo[2,3-b]pyridine-5-carboxamide] it was 0.0934 µM; in that of `CNC(=O)c1cnc2[nH]ccc2c1NCC1CCN(Cc2ccccc2)CC1` [Compound 14a, 4-(((1-Benzylpiperidin-4-yl)methyl)amino)-N-methyl-1H-pyrrolo[2,3-b]pyridine-5-carboxamide], 0.215 µM. Still for that read-out and setting: in the case of `CNC(=O)c1cnc2[nH]ccc2c1NC1CC2CCC(C1)N2Cc1ccccc1` (stereo not shown) [Compound 17a, 4-((8-Benzyl-8-azabicyclo[3.2.1]octan-3-yl)amino)-N-methyl-1H-pyrrolo[2,3-b]pyridine-5-carboxamide] it was 0.0749 µM; in that of `CNC(=O)c1cnc2[nH]ccc2c1NC1CC2CCC(C1)N2Cc1cccc(OC)c1` (stereo not shown) [Compound 17d, 4-((8-(3-Methoxybenzyl)-8-azabicyclo[3.2.1]octan-3-yl)amino)-N-methyl-1H-pyrrolo[2,3-b]pyridine-5-carboxamide], 0.0461 µM.

As to `CNC(=O)c1cnc2[nH]ccc2c1NC1CCN(Cc2ccccc2)C1` (stereo not shown) [Compound 15a, 4-((1-Benzylpyrrolidin-3-yl)amino)-N-methyl-1H-pyrrolo[2,3-b]pyridine-5-carboxamide], the IC50 amounted to 0.4 µM.

Turning to `CNC(=O)c1cnc2[nH]ccc2c1NC1CC2CCC(C1)N2Cc1ccc(C#N)cc1` (stereo not shown) [Compound 17g, 4-((8-(4-Cyanobenzyl)-8-azabicyclo[3.2.1]octan-3-yl)amino)-N-methyl-1H-pyrrolo[2,3-b]pyridine-5-carboxamide], the IC50 is 0.0153 µM.
